Measured values published in BindingDB's records for doi:10.1016/s0960-894x(99)00197-3 (The R. W. Johnson Pharmaceutical Research Institute, 1999).

Experiment: Activation of human platelet aggregation (gel-filtered platelets) induced by alpha thrombin

EC50: 1700 nM
Structure (SMILES): N=C(N)NCCC[C@H](NC(=O)[C@H](CC1CCCCC1)NC(=O)c1nnc(NC(=O)C(F)=Cc2ccccc2)[nH]1)C(=O)N[C@@H](Cc1ccccc1)C(N)=O [5-((Z)-2-Fluoro-3-phenyl-acryloylamino)-1H-[1,2,4]triazole-3-carboxylic acid {(S)-1-[(S)-1-((S)-1-carbamoyl-2-phenyl-ethylcarbamoyl)-4-guanidino-butylcarbamoyl]-2-cyclohexyl-ethyl}-amide]
